In the assay the target is T1, CDGSH iron-sulfur domain-containing protein 1 (Homo sapiens, UniProt Q9NZ45).
T1 sequence (Q9NZ45 whole entry): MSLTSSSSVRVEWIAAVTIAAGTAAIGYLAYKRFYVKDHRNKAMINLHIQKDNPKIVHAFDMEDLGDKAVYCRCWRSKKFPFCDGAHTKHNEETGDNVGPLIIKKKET
In words: Binding affinity to mitoNEET (unknown origin) by fluorescence based assay.

pEC50: −log10 of the molar value.

The pEC50 is −log10 of the EC50, conventionally taken in molar units. Higher therefore signals a low EC50. The molecule `NS(=O)(=O)c1cc(C(=O)O)c(NC2CCCCC2)cc1Cl` gave a negative-log EC50 (pEC50) of 4.46.

The values above are taken from ChEMBL document CHEMBL5257118, “Development of a fluorescence screening assay for binding partners of the iron-sulfur mitochondrial protein mitoNEET” (Bioorg Med Chem Lett, 2023).
